Ratio and IC50 data for two compounds are collected here from ChEMBL document CHEMBL4024702, “Covalent Modifiers: A Chemical Perspective on the Reactivity of α,β-Unsaturated Carbonyls with Thiols via Hetero-Michael Addition Reactions” (J Med Chem, 2017).

Amino acid sequences for entries named in this document (tags omitted). A change or cut given only in a name is not applied to a line headed by its entry.
UniProt P53779: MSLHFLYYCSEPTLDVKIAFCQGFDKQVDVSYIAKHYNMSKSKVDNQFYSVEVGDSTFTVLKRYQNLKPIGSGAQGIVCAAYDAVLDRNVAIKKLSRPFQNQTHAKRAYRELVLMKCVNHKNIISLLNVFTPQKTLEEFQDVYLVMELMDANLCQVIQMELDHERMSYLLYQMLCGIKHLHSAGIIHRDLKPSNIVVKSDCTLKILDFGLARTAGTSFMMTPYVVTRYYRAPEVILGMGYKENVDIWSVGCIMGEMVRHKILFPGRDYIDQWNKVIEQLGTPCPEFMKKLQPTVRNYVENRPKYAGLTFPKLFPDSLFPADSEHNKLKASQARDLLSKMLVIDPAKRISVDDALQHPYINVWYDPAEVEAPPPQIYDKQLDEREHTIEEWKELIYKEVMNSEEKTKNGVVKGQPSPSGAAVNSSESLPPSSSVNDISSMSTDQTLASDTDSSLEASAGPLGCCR
UniProt P45983: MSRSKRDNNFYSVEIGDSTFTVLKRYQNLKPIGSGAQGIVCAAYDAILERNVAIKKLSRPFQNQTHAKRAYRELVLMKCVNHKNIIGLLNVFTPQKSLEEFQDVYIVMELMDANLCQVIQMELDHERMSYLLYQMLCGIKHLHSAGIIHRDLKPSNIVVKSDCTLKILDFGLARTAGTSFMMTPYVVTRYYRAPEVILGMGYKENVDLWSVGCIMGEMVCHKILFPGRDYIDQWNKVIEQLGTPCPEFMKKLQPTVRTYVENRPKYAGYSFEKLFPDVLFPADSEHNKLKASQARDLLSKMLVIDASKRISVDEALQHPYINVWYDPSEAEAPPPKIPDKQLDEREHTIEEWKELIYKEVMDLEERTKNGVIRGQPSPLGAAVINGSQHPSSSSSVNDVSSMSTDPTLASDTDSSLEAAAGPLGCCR

Molecules are shown by their SMILES.

As a reminder, the IC50 is the concentration that gives 50% inhibition.

One assay concerns rhinovirus B14. Kind of assay: Irreversible inhibition of human rhinovirus serotype 14 3C protease assessed as ratio of Kobs/I by spectrofluorimetric analysis.
Assay [1] concerns the target Mitogen-activated protein kinase 10 (Homo sapiens, UniProt P53779). Put plainly: Inhibition of JNK3 (unknown origin) after 1 hr by FRET-based assay.
The target of assay [2] is Mitogen-activated protein kinase 8 (Homo sapiens, UniProt P45983). Put plainly: Inhibition of JNK1 (unknown origin) after 1 hr.

With `CCOC(=O)/C=C/[C@H](CCC(N)=O)NC(=O)[C@H](Cc1ccccc1)NC(=O)[C@H](CC(C)C)NC(=O)OCc1ccccc1`, in the assay on rhinovirus B14, the Ratio turned out to be 25000 M⁻¹ s⁻¹. As for `Cc1cc(NC(=O)c2cccc(NC(=O)/C=C/CN(C)C)c2)ccc1Nc1nccc(-c2cccnc2)n1`, the IC50 in assay [1] and in assay [2] was 1 to 19 nM in each case.
